In US20030236457A1, “Method of endovascular brain mapping” (priority 2002, published 2003):
“Also recorded” adds a separate entry of the source.

Tests used:
[1] = tested on: rat brain; experiment: Endovascular brain mapping: dye or embolic agent infused into the internal carotid artery, brains harvested to examine staining quality; format: in vivo, Sprague Dawley rats; conditions: ICA infusion after blood brain barrier disruption with arabinose, dye mixed with Omnipaque
[2] = Table 1; medium in which the fluorophore is solubilised; cited from earlier work
[3] = cited from earlier work

Substance | staining of the selected vascular distribution of the brain [1] | Solubility [2] | solubility in water [3] [mg/mL]
Fluorescein | staining was evident on the cortical surface; also recorded: good staining of a selective vascular distribution | DDs | –
2-hydoxypropyl-γ-CD [HP-γ-CD] | – | – | 450
